The target of this assay is Vascular endothelial growth factor receptor 2 (Homo sapiens, UniProt P35968).

The chains behind the UniProt entries cited, without tags or fusion partners.
UniProt P35968, whole entry: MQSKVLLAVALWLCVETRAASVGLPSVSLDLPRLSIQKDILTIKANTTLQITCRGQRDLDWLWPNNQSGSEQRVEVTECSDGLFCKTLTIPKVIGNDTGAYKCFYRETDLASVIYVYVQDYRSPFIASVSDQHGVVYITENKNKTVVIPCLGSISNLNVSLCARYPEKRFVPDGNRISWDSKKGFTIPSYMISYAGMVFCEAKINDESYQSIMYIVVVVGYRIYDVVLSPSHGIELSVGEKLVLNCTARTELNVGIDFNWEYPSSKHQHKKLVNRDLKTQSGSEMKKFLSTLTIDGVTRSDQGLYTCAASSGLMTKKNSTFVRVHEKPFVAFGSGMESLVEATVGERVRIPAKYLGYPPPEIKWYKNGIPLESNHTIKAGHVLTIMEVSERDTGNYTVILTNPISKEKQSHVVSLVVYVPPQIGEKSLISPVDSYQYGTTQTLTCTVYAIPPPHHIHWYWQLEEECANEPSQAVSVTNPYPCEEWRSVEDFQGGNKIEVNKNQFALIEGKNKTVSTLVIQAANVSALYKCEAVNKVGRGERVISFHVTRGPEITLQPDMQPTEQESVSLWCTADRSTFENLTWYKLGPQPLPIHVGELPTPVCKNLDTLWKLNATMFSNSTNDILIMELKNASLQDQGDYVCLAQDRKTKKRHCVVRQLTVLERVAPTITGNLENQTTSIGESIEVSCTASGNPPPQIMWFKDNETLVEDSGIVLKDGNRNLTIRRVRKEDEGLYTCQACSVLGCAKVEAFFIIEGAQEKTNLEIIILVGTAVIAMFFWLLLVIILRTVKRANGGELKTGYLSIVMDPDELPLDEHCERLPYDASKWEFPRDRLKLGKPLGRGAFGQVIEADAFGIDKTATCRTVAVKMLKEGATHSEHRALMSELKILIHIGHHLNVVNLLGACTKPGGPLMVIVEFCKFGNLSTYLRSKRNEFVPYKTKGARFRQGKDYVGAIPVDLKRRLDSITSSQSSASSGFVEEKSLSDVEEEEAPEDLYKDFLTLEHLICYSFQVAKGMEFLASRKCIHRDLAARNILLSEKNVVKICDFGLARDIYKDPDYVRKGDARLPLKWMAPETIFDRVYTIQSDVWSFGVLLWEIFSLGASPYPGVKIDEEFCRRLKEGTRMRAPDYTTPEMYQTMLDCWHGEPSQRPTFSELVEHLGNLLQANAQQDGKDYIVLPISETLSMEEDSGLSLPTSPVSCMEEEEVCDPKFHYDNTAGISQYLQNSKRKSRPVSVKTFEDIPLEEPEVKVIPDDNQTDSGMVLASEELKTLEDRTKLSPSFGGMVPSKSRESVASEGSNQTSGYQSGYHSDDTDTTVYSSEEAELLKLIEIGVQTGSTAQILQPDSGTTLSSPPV

As a reminder, the IC50 is the point on the concentration scale where inhibition reaches its midpoint. A lower IC50 goes with inhibition by little substance. `NS(=O)(=O)c1ccc(NC(=O)Nc2nc(-c3ccccc3)n(-c3ccc(F)cc3)n2)cc1` gave a half-maximal inhibitory concentration (IC50) of 26.3 nM.

These data come from ChEMBL document CHEMBL5346980, “1,5-Diaryl-1,2,4-triazole Ureas as New SLC-0111 Analogues Endowed with Dual Carbonic Anhydrase and VEGFR-2 Inhibitory Activities” (J Med Chem, 2023).
